Data taken from US9115083B2 (Simpson Biotech Co., Ltd, priority 2011, dated 2015).

Sequences of proteins named here, by UniProt entry; tags and fusion partners are left off.
UniProt P27487, whole entry: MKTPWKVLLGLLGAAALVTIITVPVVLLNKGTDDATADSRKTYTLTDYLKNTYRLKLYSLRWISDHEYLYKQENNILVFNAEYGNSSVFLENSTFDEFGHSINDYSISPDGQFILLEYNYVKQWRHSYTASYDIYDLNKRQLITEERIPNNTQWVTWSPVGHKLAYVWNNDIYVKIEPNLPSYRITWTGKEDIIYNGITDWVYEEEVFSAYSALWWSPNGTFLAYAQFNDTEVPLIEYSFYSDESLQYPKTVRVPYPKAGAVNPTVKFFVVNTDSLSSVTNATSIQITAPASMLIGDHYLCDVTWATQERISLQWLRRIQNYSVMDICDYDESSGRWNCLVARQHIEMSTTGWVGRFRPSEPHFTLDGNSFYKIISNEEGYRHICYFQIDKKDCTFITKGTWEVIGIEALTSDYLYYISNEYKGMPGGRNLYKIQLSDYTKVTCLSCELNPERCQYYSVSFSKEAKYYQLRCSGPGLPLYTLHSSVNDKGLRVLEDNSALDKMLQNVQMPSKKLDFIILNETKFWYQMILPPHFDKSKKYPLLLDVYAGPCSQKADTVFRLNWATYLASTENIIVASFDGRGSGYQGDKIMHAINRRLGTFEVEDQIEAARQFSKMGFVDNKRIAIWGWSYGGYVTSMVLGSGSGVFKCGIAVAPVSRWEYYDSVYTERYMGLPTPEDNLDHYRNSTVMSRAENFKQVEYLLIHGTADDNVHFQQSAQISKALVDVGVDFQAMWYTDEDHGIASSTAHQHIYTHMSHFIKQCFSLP

Biological target: dipeptidyl peptidase-IV (DPPIV) (Homo sapiens (Human), UniProt P27487)
Assay: dipeptidyl peptidase-IV (DPPIV) assay
Type: biochemical
Details: Table 10, first scaffold
Description: In addition, the dipeptidyl peptidase-IV (DPPIV) assay herein was applied to investigate the DPPIV inhibitory activity of the prepared compounds as described above. The method of the DPPIV assay was described in Lin et al., 1998. Inhibition of dipeptidyl peptidase IV by fluoroolefin-containing N-peptidyl-O-hydroxylamine peptidomimetics. Proc. Natl. Acad. Sci. USA Vol. 95, pp. 14020-14024.

| SMILES | IC50 against DPPIV |
| --- | --- |
| COC(=O)[C@@H]1CCCN1C(=O)C(Cc1ccccc1)N1C(=O)C(CC(C)C)=C(c2ccc(OCC=C(C)C)cc2)C1=O (stereo partly shown) | 89.0 µg/mL and 70 µg/mL |
| CC(C)=CCOc1ccc(C2=C(CC(C)C)C(=O)N(C(CC(C)C)C(=O)N3CCC[C@H]3C(=O)OC(C)(C)C)C2=O)cc1 (stereo partly shown) | 60 µg/mL (≈ 103 µM) |
| CC(C)=CCOc1ccc(C2=C(CC(C)C)C(=O)N(C(CO)C(=O)N3CCC[C@H]3C(=O)OC(C)(C)C)C2=O)cc1 (stereo partly shown) | 55 µg/mL (≈ 99.2 µM) |
| CC(C)=CCOc1ccc(C2=C(CC(C)C)C(=O)N(C(Cc3ccccc3)C(=O)N3CCC[C@H]3C(=O)OC(C)(C)C)C2=O)cc1 (stereo partly shown) | 84 µg/mL (≈ 137 µM) |

Converted amounts (≈) assume the structure as drawn. “And” between values parts separate entries of the source, which are not always exact repeats. Identical values can stand only once.
